In assay [1] the test system is HER family proteins (HER1, HER2, HER3). The assay can be described thus: Phosphotyrosine ELISA for HER family proteins, HER1, HER2 and HER3 together (panHER Index). Conditions: for inhibition of EGF stimulated phosphorylation of HER proteins: cell lines tested. The format is cell-based, human.
The target in assay [2] is EGF (Homo sapiens, UniProt P01133). As to the kind of experiment: 125I-EGF binding with BS3 cross-linking and SDS-PAGE. Particulars: supernatant of transfected 293T cells, 5 nM 125I-EGF, BS3 cross-linking, SDS-PAGE.
The target in assay [3] is T1, HER1 (Homo sapiens, UniProt P00533). As to the kind of experiment: ELISA-based HER receptor phosphorylation assay, HER1. Particulars: A431 cells, in the presence of EGF; read-out: IC50, inhibition of HER1 phosphorylation. Also on record: endogenous in cells; host or cells: A431, A549, HT-29, N87, SK-BR-3, ZR-75-1. It counts as cell-based. The protocol:
(§1) Phosphorylation of HER receptors was assessed in an ELISA-based HER Receptor phosphorylation assay. Various cells (A431, MCF7, SK-BR3, SK-OV3, MCF7/HER2) were serum-starved in serum free medium for about 24 hr. Cells were then treated with increasing concentrations of candidate HER ECD derivatives (see below) for 30 min at 37° C., ligands (EGF, 3 nM and/or HRGβ, 5 nM were then added for 10 min incubation. After treatment, cells were washed with PBS once and lysed with 100 μl of 1× Cell Lysis Buffer (Cell Signaling) with addition of protease and phosphtase inhibitors (Protease Inhibitor Cocktail Set and Phosphatase Inhibitor Set, Calbiochem).
(§2) Cells were lysed on ice for 15 min and cell lysate were applied to a 96-well plate pre-coated with the respective receptor-specific capture antibodies (antibodies were purchased from R & D System) by manufacture recommended concentrations (0.4 to 4 ug/ml) and condition (in PBS, room temperature, overnight). Cell lysates were incubated with the capture Ab plate for 3 hrs at room temperature. Plates were washed 3× with PBST buffer. Anti-phosphotyrosine antibody clone 4G10 HRP-conjugated (Upstate) were diluted at 1:1000 in 1% of BSA.PBS and added to the plates, 100 μl/well for 1 hr to detect specifically HER receptors phosphorylated on tyrosine. […] The optical density was determined by microplate reader at 650 nm (Molecular Devices, VERSAmax).

Sequences of proteins named here, by UniProt entry; tags and fusion partners are left off. Residues count along the entry.
UniProt P01133, 971-1023 limits assumed: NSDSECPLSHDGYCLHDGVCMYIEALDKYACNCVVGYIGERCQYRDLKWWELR

Assay [4] concerns the target T2, HER2 (Homo sapiens, UniProt P04626).
T2 construct: endogenous in cells
As to the kind of experiment: ELISA-based HER receptor phosphorylation assay, HER2. It counts as cell-based. Particulars: EGF; for maximal inhibition of HER2 phosphorylation: 600 nM protein; for IC50: read-out: IC50, inhibition of HER2 phosphorylation. As to the method:
as §1
Cells were lysed on ice for 15 min and cell lysate were applied to a 96-well plate pre-coated with the respective receptor-specific capture antibodies (antibodies were purchased from R & D System) by manufacture recommended concentrations (0.4 to 4 ug/ml) and condition (in PBS, room temperature, overnight). Cell lysates were incubated with the capture Ab plate for 3 hrs at room temperature. Plates were washed 3× with PBST buffer. Anti-phosphotyrosine antibody clone 4G10 HRP-conjugated (Upstate) were diluted at 1:1000 in 1% of BSA.PBS and added to the plates, 100 μl/well for 1 hr to detect specifically HER receptors phosphorylated on tyrosine. After 3× PBST wash, the plates were developed by adding 100 μl of substrate solution (TMB, Sigma) and stopped by 50 μl of SDS stop solution. The optical density was determined by microplate reader at 650 nm (Molecular Devices, VERSAmax).

The target in assay [5] is T1, HER1. As to the kind of experiment: ELISA-based HER receptor phosphorylation assay, HER1. It counts as cell-based. Also on record: endogenous in cells. Particulars: A431 cells, EGF, 600 nM protein. As to the method: as §1, §2

Like-named read-outs stand apart in the source and are kept apart here.

As to “Herceptin: humanized version of a murine monoclonal antibody, targets the extracellular domain of HER2”, the “inhibition of EGF stimulated phosphorylation of HER proteins” value in assay [1] is reported as “did not inhibit”.
Consider “HFD110: truncated HER1 ECD (1-501) fused to Fc, SEQ ID NO:38”, for which the “binding of 125I-EGF” value in assay [2] was “substantially increased binding”.
As for “C225: HER1 directed biologic, inhibits EGF binding to HER1”, the “inhibition of NRG1β1 stimulated phosphorylation of HER family proteins” value in assay [1] (any of the cell lines tested) is on record as “did not inhibit”. Moreover, the “inhibition of EGF stimulated phosphorylation of HER proteins” value in assay [1] is given as “as efficacious as RB200h”.
For “HF110T: truncated HER1 ECD, residues 1-501, SEQ ID NO:10; T = C-terminal myc-His tag”, the half-maximal inhibitory concentration (IC50) was 98 nM in assay [3], 42 nM in assay [4] (A431 cells) and 18 nM in assay [4] (MCF7 cells). Further, the “binding of 125I-EGF” value in assay [2] was “no detectable binding”. The “maximal inhibition of HER2 phosphorylation” value in assay [4] (A431 cells) and in assay [4] (MCF7 cells) was “about 50%” in each case. The “maximal inhibition of HER1 phosphorylation” value in assay [5] is given as “about 60%”.

For the origin of these results see patent US20100055093A1, “PAN-CELL SURFACE RECEPTOR-SPECIFIC THERAPEUTICS” (RECEPTOR BIOLOGIX INC., priority 2006, published 2010).
